Laboratory results: article PMC4055232 (Malaria Journal, 2014)
“And” between values parts separate entries of the source, which are not always exact repeats. Identical values can stand only once. Marks after values point to notes of the source that are not given here.

Experiments:
[1] = Pharmacokinetics of probe drug cocktail (bupropion, midazolam) and their metabolites before and after QHS-PQ; assay type: in vivo, human; conditions: for AUC 0-t /dose: mean ± sd
Method: The chromatography was performed at 22°C. The mobile phase consisted of B (acetonitrile) and A (0.1% formic acid in water), which increased linearly from 20% B to 90% B during 7 min before column re-equilibration at a flow rate of 0.3 mL/min.
Plasma samples were subjected to a protein precipitation extraction process. A 100 μL aliquot of human plasma was mixed with 25 μL of acetonitrile and 200 μL of IS (1 μM of alprazolam, prepared in acetonitrile). The mixture was mixed and centrifuged at 3,000 g for 10 min. Aliquots (20 μL) of the solution were injected onto LC-MS analysis. […] This mixture was treated as above. […] Plasma samples were diluted with blank plasma and reanalysed when the concentration of any analyte was higher than the upper limit of quantification.
Venous blood samples (2 mL) for analysis of probe drugs and their metabolites were taken from an indwelling intravenous catheter at 0, 0.25, 0.75, 1.5, 2.0, 3.0, 4.0, 5.0, 7.0, 11.0, 24.0, 36.0, and 48.0 hours.
The peak plasma concentration (Cmax) and time-to-peak concentration (Tmax) were obtained from experimental observations. The other pharmacokinetic parameters were analysed by non-compartmental model using the program TOPFIT (version 2.0; Thomae GmbH, Germany). The area under the plasma concentration-time curve (AUC o-t ) was calculated using the linear trapezoidal rule to approximately the last point. The mean residence time (MRT) was obtained by dividing the area under the first moment-time curve (AUMC 0-t ) by the area under the curve (AUC 0-t ). Total oral body clearance (CL/F) was calculated as dose/AUC 0-t .
Results were expressed as mean ± SD. The two-tailed t-test was used for paired comparison of the pharmacokinetic parameters between the single dose and multiple doses after logarithmic transformation. Geometric mean ratios with 90% confidence intervals (CIs) were calculated after log transformation of within-subject data. The comparison of Tmax for the different treatment groups was performed using the Wilcoxon signed-rank test. The acceptable level of significance was established at P < 0.05 or P < 0.01.

CYP3A4 = conditions: healthy Chinese and Caucasian volunteers; cited from earlier work
[2] = 2-day (after QHS-PQ) versus 1-day (day -14)

For Cc1ncc2n1-c1ccc(Cl)cc1C(c1ccccc1F)=NC2 [MDZ, midazolam], the “Geometric mean ratio (90% CI) of AUC 0-t /dose” value [1, 2] was 1.55 (1.35, 1.78)**, the “Geometric mean ratio (90% CI) of C max” value [1, 2] was 1.48 (1.12, 1.97)* and the “Geometric mean ratio (90% CI) of CL/F” value [1, 2] was 0.64 (0.55, 0.73)**. The “Geometric mean ratio (90% CI) of MRT” value [1, 2] was 1.04 (0.96, 1.14), the “increase of AUC/dose after QHS-PQ” value ([1]; after two days of QHS-PQ versus day -14) was 1.6 ± 0.5 fold and the “AUC 0-t /dose” value ([1]; listed as '1-day': oral probe cocktail (bupropion 75 mg, midazolam 15 mg) on day -14, before QHS-PQ) was 1.0 ± 0.3 h·kg·L^-1 and 1.00 ± 0.33** h·kg·L^-1. The “AUC 0-t /dose” value ([1]; listed as '2-day': probe cocktail 1 hour after second oral dose of QHS-PQ (day 2)) was 1.55 ± 0.42** h·kg·L^-1 and the “AUC ratio of OH-MDZ to MDZ, reported data” value (CYP3A4) was 0.22-0.30.
